The values that follow come from patent US7361743B2 (Pfizer Inc, priority 2004, dated 2008).

For this assay, the system named is Staphylococcus aureus Smith. The assay can be described thus: Efficacy in murine S. aureus septicemia. The assay is classed as in vivo, ICR mice. As for the experimental part: Efficacy studies were performed in an S. aureus murine septicemia model according to models published elsewhere (Goldstein, B. P., G. Candiani, T. M. Arain, G. Romano, I. Ciciliato, M. Berti, M. Abbondi, R. Scotti, M. Mainini, F. Ripamonti, and et al. 1995. Antimicrobial activity of MDL 63,246, a new semisynthetic glycopeptide antibiotic Antimicrob. Agents Chemother. 39:1580-1588; Misiek, M., T. A. Pursiano, F. Leitner, and K. E. Price 1973. Microbiological properties of a new cephalosporin, BL-S 339:7-(phenylacetimidoyl-aminoacetamido)-3-(2-methyl-1,3,4-thiadiazol-5-ylthio methyl)ceph-3-em-4-carboxylic acid Antimicrob. Agents Chemother. 3:40-48).
Compounds were dissolved in 2% Tween 80 for oral dosing or 0.9% NaCl solution for intravenous dosing. Compounds were administered at 1 hour after bacterial inoculation. Vancomycin or ampicillin were used as controls.
Male or female ICR mice weighing 22±2 g from MDS Pharma Services were used for the evaluation. Food and water was given ad libitum. Groups of 6 mice weighing […] were used for the experiment. […] Mortality was recorded once daily for 7 days following bacterial inoculation. […]
Male or female ICR mice weighing 22±2 g from MDS Pharma Services were used for the evaluation. […] Mortality was recorded once daily for 7 days following bacterial inoculation.

Read-outs that look alike come from different tables or passages of the source.

As for `CCC[C@@H]1C[C@@H](C(=O)N[C@@H]([C@H]2O[C@H](SC)[C@H](O)[C@@H](O)[C@H]2O)[C@H](C)Cl)N(C)C1` [clindamycin, reference compound], the ED50 by setting is: (iv, read-out: ED50, IV) 1 to 1.41 mg/kg; (po, read-out: ED50, PO) 3.1 mg/kg.

The term ED50 denotes the midpoint of the dose-response relation.
